Measurements as given in ChEMBL document CHEMBL4130452, “Design of Selective Benzoxazepin PI3Kδ Inhibitors Through Control of Dihedral Angles” (ACS Med Chem Lett, 2017).
pIC50, pKi: −log10 of the molar value.

Tests used:
[1] = molecular target: T1, Phosphatidylinositol 4,5-bisphosphate 3-kinase catalytic subunit delta isoform (Homo sapiens, UniProt O00329); experiment: Inhibition of PI3Kdelta in human whole blood assessed as suppression of CD69 expression
T1 sequence (O00329 whole entry): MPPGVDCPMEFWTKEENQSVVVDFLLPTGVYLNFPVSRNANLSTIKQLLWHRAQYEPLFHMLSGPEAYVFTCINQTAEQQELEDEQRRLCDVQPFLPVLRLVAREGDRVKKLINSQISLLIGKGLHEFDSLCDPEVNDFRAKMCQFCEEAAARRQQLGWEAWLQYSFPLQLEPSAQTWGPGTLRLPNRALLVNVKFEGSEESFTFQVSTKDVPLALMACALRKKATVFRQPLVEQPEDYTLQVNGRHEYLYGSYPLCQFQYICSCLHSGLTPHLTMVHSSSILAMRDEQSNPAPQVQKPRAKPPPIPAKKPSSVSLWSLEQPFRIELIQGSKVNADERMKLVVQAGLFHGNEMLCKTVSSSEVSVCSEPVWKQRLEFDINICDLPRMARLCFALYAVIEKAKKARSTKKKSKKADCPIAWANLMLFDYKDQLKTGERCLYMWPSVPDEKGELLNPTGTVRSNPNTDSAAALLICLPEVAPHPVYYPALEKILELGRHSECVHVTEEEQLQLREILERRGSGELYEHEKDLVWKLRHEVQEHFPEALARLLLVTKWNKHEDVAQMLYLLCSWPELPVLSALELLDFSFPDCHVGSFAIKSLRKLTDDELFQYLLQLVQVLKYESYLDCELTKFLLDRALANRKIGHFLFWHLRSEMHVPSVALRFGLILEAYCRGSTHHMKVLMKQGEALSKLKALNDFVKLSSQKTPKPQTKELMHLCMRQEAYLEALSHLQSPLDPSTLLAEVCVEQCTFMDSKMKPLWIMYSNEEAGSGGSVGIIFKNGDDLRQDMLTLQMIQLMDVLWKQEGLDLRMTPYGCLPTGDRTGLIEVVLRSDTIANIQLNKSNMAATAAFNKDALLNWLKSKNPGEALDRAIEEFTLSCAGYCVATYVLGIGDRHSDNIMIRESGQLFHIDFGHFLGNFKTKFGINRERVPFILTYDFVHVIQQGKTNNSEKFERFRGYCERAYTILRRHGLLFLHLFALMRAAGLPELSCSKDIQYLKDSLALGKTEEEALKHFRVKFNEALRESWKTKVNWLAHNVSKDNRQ

[2] = molecular target: T1, Phosphatidylinositol 4,5-bisphosphate 3-kinase catalytic subunit delta isoform; experiment: Binding affinity to PI3Kdelta (unknown origin); conditions: read-out: Ki(app)

- pIC50 [1]: 8.31
- pKi [2]: 9.32
SMILES: Cc1nc(-c2cn3c(n2)-c2cc([C@@H](C)N4CCN(C(C)(C)C)CC4)c(C)cc2OCC3)n(C(C)C)n1
